From ChEMBL document CHEMBL5365545, “Synthesis and Optimization of 1-Substituted Imidazo[4,5-c]quinoline TLR7 Agonists” (ACS Med Chem Lett, 2023)
Calls of active or inactive are those of the source. No cut-off for these calls is given here.

Experiments:
[1] = molecular target: T1, Toll-like receptor 8 (Homo sapiens) (UniProt Q9NR97); assay: Agonist activity at TLR8 in GM-CSF induced human MDM cells assessed as increase in IL-6 release at 80 to 2000 nM measured after 6 hrs; type: cell-based; conditions: filed as agonist, dose 80-2000 nM
T1 sequence (whole entry): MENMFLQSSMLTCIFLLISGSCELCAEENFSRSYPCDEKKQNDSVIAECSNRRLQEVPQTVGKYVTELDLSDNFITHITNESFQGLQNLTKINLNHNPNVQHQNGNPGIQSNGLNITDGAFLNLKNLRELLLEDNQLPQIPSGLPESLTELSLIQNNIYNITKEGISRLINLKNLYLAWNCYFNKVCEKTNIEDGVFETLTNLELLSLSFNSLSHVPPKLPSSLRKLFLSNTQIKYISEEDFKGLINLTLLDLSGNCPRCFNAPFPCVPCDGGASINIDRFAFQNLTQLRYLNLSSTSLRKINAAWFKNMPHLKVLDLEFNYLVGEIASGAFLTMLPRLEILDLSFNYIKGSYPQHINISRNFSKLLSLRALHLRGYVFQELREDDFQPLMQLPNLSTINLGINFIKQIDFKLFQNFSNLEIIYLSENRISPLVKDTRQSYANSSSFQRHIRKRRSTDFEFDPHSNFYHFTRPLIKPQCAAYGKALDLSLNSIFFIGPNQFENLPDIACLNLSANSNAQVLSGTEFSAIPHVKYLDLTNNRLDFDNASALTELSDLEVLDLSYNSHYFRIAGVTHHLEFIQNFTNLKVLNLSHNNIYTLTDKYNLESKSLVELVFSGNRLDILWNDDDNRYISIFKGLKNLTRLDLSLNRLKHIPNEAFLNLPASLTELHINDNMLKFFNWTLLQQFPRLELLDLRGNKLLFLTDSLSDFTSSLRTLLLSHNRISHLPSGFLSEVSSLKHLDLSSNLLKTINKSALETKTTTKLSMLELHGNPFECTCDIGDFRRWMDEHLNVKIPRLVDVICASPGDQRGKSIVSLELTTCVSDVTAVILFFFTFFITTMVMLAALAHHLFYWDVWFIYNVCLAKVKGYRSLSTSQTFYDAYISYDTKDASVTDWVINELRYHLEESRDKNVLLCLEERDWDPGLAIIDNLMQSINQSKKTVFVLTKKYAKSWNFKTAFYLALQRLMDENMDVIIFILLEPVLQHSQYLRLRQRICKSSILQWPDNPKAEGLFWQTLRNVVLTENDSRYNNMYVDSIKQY

[2] = molecular target: T1, Toll-like receptor 8 (Homo sapiens); assay: Agonist activity at TLR8 in GM-CSF induced human MDM cells assessed as increase in TNFalpha release at 80 to 2000 nM measured after 6 hrs; type: cell-based; conditions: filed as agonist, dose 80-2000 nM

CCOCc1nc2c(N)nc3ccccc3c2n1CC(C)(C)O [RESIQUIMOD]
Activity [1]: Active | Activity [2]: Active
